From ChEMBL document CHEMBL1135708, “Synthesis of 1-(3,4-dihydroxy-5-nitrophenyl)-2-phenyl-ethanone and derivatives as potent and long-acting peripheral inhibitors of catechol-O-methyltransferase” (J Med Chem, 2002)

Biological target: T1, Catechol O-methyltransferase (Rattus norvegicus, UniProt P22734)
T1 sequence (P22734 whole entry): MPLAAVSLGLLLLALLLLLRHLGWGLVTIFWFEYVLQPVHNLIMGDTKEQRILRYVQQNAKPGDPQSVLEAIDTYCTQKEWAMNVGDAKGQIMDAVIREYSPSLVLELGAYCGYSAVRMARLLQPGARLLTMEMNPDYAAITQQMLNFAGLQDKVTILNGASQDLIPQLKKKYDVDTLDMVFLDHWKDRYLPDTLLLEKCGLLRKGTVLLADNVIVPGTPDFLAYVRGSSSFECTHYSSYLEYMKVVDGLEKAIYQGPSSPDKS

**Q.** For `O=C(Cc1ccccc1)c1cc(O)c(O)c([N+](=O)[O-])c1` [NEBICAPONE], which IC50 is on record?
**A.** The IC50 was 696 µM.
